## Curated experimental data: melting point values

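These are experimental values that the OPERA curators gathered from public databases to train and test their QSAR models. The files give a single number for a compound and property, which may rest on several reports. Method and conditions are not stated for these values. The measured form (salt, isomer or mixture) is not always the one drawn. Some upstream entries may be estimates or bounds without being marked so.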

The melting point is given in degrees Celsius. "via" names the databases from which the curators took the value.

structure (SMILES),melting point (°C),via
NC(=O)c1ccc(Cl)cc1N,180,OCHEM
O=c1ccc2cc(S(=O)(=O)Cl)ccc2o1,118,OCHEM
Cc1c(-c2ccccc2)nc2ccccc2c1C(=O)O,236,OCHEM
N#CC1(N)CCCCC1,26,OCHEM
CC(=O)Nc1cccc(NC(=O)CCl)c1,174,OCHEM
C=CCOc1ccccc1C(=O)O,59,OCHEM
Cc1cccc(-n2nc(C(C)(C)C)cc2N)c1,91,OCHEM
NNc1nccc2sccc12,192,OCHEM
Cc1cc(C)n(-c2ccc(CO)cc2)n1,17,OCHEM
O=C(O)Cc1coc2ccc3ccccc3c12,167,OCHEM
Cc1ccc(Nc2nnc(S)s2)cc1,220,OCHEM
CC(=O)C(N=Nc1ccc(C)cc1[N+](=O)[O-])C(=O)Nc1ccc(Cl)cc1 (stereo unspecified),236,eChemPortal
O=C(O)CNc1ncnc2ccccc12,220,OCHEM
Nn1c(=O)[nH]c2ccccc2c1=O,298,OCHEM
CC(C)Oc1ccc(C(=O)NCC(=O)O)cc1,155,OCHEM
N#CCc1ccncc1,268,OCHEM
O=C(O)c1cc(-c2cccc(Cl)c2)on1,176,OCHEM
CC1(CCc2ccc(O)cc2)NC(=O)NC1=O (stereo unspecified),193,OCHEM
O=C(O)C1CCCN1C(=O)Nc1ccccc1 (stereo unspecified),162,OCHEM
O=S1(=O)CCNc2ccccc21,140,OCHEM
Nc1c(-c2ccccc2)nc2sccn12,150,OCHEM
Cc1ccc(NC(=S)NN)cc1C,177,OCHEM
NNC(=S)NC1CC1,101,OCHEM
O=C(O)CCCN1C(=O)CSC1=S,125,OCHEM
CC(c1cc(-c2ccccc2)c(O)c(-c2ccccc2)c1)(c1cc(-c2ccccc2)c(O)c(-c2ccccc2)c1)C(F)(F)F,228.5,eChemPortal
O=S(=O)(c1ccc(Cl)cc1)N1CCNCC1,101,OCHEM
O=C(O)c1cccc2c1CCCN2,143,OCHEM
Cc1nn(C)c(C)c1NC(=O)CCl,108,OCHEM
CC(C)=CCC[C@@H](C)[C@H]1CC[C@H]2C3=C(CC[C@]12C)[C@@]1(C)CC[C@H](O)C[C@@H]1CC3,110,OCHEM
Fc1ccc(-c2cc(CBr)on2)cc1,75,OCHEM
O=C(O)CCCN1C(=O)c2cccc3cccc(c23)C1=O,87,OCHEM
O=C(O)CCSc1ccccc1Cl,97,OCHEM
S=c1[nH]nc2sc3ccccc3n12,253,OCHEM
Nc1cc2c(cc1Cl)OCO2,91,OCHEM
CC(C)CNC(=O)CC#N,58,OCHEM
COc1ccc(Nc2ccccc2)cc1,105,OCHEM
CCOC(=O)c1c(N)n(CCO)c2nc3ccccc3nc12,227,OCHEM

The 3 highest values of melting point among the entries above:

{"smiles": "Nn1c(=O)[nH]c2ccccc2c1=O", "melting point (°C)": "298", "via": "OCHEM"}
{"smiles": "N#CCc1ccncc1", "melting point (°C)": "268", "via": "OCHEM"}
{"smiles": "S=c1[nH]nc2sc3ccccc3n12", "melting point (°C)": "253", "via": "OCHEM"}

Data: OPERA 2.9 data sets, kmansouri/OPERA on GitHub.